Results: patent publication US8877775B2, “Substituted 2-aza-bicyclo[2.2.2]octane-3-carboxylic acid (benzyl-cyano-methyl)-amides inhibitors of cathepsin C” (Boehringer Ingelheim International GmbH, priority 2013, dated 2014)

By UniProt entry, the sequences of proteins in these tests, tags left out. Residues count along the entry.
UniProt P53634, 395-463: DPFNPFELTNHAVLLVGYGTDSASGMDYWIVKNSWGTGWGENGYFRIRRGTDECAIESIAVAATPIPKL
UniProt P53634, 25-134: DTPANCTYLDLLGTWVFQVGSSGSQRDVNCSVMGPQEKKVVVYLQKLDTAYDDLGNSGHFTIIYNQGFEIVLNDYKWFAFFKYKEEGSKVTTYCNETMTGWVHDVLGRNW
UniProt P53634, 231-394: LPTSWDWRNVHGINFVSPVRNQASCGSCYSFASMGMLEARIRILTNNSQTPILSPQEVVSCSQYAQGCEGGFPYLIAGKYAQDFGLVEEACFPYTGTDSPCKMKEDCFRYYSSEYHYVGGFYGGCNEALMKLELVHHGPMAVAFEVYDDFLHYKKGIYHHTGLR

Molecular target: recombinant human DPPI (Cathepsin C) (Homo sapiens (Human), UniProt P53634)
Assay: Inhibition of human DPPI (Cathepsin C)
Format: biochemical
Conditions: substrate Gly-Arg-AMC 50 μM, 30 min, room temperature
Text: Inhibition of Human DPPI (Cathepsin C)
Materials: Microtiterplates (Optiplate-384 F) were purchased from PerkinElmer (Prod. No. 6007270). The substrate Gly-Arg-AMC was from Biotrend (Prod.-No. 808756 Custom peptide). Bovine serum albumin (BSA; Prod. No. A3059) and Dithiothreitol (DTT; Prod. No D0632) were from Sigma. TagZyme buffer was from Riedel-de-Haen (Prod.-No. 04269), NaCl was from Merck (Prod.-No. 1.06404.1000) and morpholinoethane sulfonic acid (MES), was from Serva (Prod.-No. 29834). The DPP1 inhibitor Gly-Phe-DMK was purchased from MP Biomedicals (Prod.-No. 03DK00625). The recombinant human DPPI was purchased from Prozymex. All other materials were of highest grade commercially available.
The following buffers were used: MES buffer: 25 mM MES, 50 mM NaCl, 5 mM DTT, adjusted to pH 6.0, containing 0.1% BSA; TAGZyme Buffer: 20 mM NaH2PO4, 150 mM NaCl adjusted to pH 6.0 with HCl […]
Five uL test compound (final concentration 0.1 nM to 100 μM) in aqua bidest (containing 4% DMSO, final DMSO concentration 1%) were mixed with 10 μL of DPPI in MES buffer (final concentration 0.0125 ng/μL) and incubated for 10 min. […] The fluorescence in the wells was determined using a Molecular Devices SpectraMax M5 Fluorescence Reader (Ex 360 nm, Em 460 nm) or an Envision Fluorescence Reader (Ex 355 nm, Em 460 nm). […]

SMILES | IC50
CS(=O)(=O)c1cc(-c2ccc(C[C@@H](C#N)NC(=O)[C@H]3NC4CCC3CC4)c(F)c2)ccc1C#N [Example 1, (2S)—N-[(1S)-1-cyano-2-[4-(4-cyano-3-methylsulfonyl-phenyl)-2-fluoro-phenyl]ethyl]-3-azabicyclo[2.2.2]octane-2-carboxamide] | 0.0301 µM
CN1C(=O)Cc2cc(-c3ccc(C[C@@H](C#N)NC(=O)[C@H]4NC5CCC4CC5)cc3)ccc21 [Example 19] | 0.134 µM
